Assay results from patent US20220175675A1, “ENCAPSULATING MOLECULES IN FAT GLOBULES” (The Regents of the University of California, priority 2019, published 2022).

Experiment: Water/octanol partitioning coefficient, Log P

`O.O=c1c(O)c(-c2ccc(O)c(O)c2)oc2cc(O)cc(O)c12` [Quercetin hydrate] gave a logP of roughly 2.
